Literature values in patent US9629872B2, “Sodium thiosulphate for the treatment of ectopic calcifications” (Institut National de la Sante et de la Recherche Medicale …, priority 2012, dated 2017).

Settings: at 20° C.; cited from earlier work

In the case of Sodium thiosulfate pentahydrate, the solubility in water is given as 780 mg/mL.
